Like-named read-outs stand apart in the source and are kept apart here.
Key:
EGFR WT = EGFR WT (Homo sapiens, UniProt P00533); assay: Biochemical EGFR kinase assay (Lance Ultra TR-FRET), wildtype
Protocol: (§1) Biochemical EGFR kinase assays were conducted using Lance Ultra time-resolved fluorescence resonance energy transfer (TR-FRET) technology from Perkin-Elmer. Compounds of the invention were initially diluted to 20 mM in 100% DMSO for storage and made into kinase buffer solution to create a compound concentration ranging from 0.003 μM and 10 μM.
(§2) Briefly, each EGFR enzyme wildtype (EGFR WT), double mutant [del19/C797S (EGFR D19CS) and L858R/C797S (EGFR LRCS)], triple mutant [del19/T790M/C797S (EGFR D19TMCS) and L858R/T790M/C797S (EGFR LRTMCS)], serial diluted EGFR inhibitors, substrate of ULight-poly-GT peptide (PerkinElmer; TRF0100-M) and different concentrations of ATP (Km and 100 μM final assay concentration) were mixed in kinase assay buffer (50 mM HEPES pH 7.4, 10 mM MgCl2, 1 mM EGTA, 2 mM DTT and 0.01% Tween-20) and were added to a 384-well plate (Optiplate™ 384, white, PerkinElmer; 6007290).
(§3) Each kinase reactions were incubated at room temperature for 1 hour and then stopped by the addition of 4 μL of stop solution (10 mM EDTA). The specific Europium-labeled-anti-phosphopeptide antibody (PerkinElmer, AD0069) diluted in LANCE detection buffer was then added to a final concentration of 2 nM. After 60 minutes incubation at room temperature the LANCE signal was measured on an EnVision Multilabel Reader (Perkin-Elmer). Excitation wavelength was set at 320 nm and emission monitored at 615 nm (donor) and 665 nm (acceptor). The IC50 values were determined using GraphPad prism software (GraphPad Software, Inc., San Diego, CA, USA).

Protein sequences, listed by entry. Tags and fused reporters are not part of them. Lines headed by an entry give the natural chain unless they say otherwise; changes in a name come on top. Chains listed by the source or under a name are the forms on record and can include a tag or linker. Residues count along the entry.
UniProt P00533, 25-1210 limits assumed: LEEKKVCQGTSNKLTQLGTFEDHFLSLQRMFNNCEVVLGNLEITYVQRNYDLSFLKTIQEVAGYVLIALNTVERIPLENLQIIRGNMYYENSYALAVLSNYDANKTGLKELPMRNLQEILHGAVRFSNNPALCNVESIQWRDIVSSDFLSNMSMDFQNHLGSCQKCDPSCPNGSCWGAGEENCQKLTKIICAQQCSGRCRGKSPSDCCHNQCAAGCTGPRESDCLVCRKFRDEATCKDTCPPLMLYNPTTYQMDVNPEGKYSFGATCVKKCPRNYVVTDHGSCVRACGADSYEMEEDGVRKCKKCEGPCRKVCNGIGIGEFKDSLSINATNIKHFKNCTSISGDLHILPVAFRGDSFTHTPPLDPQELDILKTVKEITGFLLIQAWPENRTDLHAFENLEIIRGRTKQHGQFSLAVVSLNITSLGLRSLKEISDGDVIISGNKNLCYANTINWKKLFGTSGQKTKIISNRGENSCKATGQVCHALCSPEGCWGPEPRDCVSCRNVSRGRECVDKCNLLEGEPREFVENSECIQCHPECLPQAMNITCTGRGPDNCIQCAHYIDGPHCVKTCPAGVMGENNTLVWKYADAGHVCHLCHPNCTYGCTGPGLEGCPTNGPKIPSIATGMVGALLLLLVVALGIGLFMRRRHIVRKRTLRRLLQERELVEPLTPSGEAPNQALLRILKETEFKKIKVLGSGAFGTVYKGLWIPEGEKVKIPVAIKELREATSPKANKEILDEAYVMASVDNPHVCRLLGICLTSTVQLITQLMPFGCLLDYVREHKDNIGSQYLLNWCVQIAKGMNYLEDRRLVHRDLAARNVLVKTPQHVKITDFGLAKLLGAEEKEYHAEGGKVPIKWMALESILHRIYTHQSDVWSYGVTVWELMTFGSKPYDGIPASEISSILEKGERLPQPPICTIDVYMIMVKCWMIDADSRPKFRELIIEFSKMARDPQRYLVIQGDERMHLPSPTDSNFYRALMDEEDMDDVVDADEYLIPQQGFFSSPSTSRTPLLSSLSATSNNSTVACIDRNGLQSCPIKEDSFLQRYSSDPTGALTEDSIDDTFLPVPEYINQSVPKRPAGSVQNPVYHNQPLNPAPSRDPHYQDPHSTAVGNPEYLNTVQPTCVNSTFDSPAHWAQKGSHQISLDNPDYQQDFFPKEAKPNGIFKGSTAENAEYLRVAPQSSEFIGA
UniProt P00533, 25-1210 C797S/L858R limits assumed: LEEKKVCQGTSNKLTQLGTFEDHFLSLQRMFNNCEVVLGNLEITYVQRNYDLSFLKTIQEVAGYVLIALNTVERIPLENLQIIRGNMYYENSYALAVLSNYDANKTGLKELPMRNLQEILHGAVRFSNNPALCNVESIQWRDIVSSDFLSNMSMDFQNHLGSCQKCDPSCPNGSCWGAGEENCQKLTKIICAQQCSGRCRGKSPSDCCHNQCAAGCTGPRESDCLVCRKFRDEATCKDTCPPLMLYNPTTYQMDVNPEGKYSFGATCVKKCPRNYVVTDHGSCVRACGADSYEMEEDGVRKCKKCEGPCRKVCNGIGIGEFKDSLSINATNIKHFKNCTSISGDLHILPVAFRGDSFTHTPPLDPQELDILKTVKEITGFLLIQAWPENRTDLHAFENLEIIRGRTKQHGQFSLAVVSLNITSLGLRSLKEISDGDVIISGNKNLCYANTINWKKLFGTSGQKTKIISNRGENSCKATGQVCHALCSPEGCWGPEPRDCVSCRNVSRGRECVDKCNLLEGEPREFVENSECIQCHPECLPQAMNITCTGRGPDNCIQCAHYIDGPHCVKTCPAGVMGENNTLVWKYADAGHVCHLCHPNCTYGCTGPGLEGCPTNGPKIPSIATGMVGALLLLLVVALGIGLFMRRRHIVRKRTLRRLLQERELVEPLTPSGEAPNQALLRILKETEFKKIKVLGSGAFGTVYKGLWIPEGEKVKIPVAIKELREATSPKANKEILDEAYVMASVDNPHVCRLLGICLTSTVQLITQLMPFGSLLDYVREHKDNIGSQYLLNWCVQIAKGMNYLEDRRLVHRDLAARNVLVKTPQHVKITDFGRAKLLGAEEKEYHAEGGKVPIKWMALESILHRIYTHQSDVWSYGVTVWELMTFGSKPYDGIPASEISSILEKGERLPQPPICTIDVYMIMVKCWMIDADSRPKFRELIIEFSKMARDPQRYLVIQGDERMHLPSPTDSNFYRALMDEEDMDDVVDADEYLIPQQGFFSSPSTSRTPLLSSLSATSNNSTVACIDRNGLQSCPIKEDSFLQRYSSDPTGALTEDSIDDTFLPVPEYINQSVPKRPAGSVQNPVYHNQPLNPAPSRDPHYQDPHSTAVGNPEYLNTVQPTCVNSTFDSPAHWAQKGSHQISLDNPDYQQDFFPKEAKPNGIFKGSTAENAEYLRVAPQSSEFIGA
UniProt P00533, 25-1210 T790M/C797S/L858R limits assumed: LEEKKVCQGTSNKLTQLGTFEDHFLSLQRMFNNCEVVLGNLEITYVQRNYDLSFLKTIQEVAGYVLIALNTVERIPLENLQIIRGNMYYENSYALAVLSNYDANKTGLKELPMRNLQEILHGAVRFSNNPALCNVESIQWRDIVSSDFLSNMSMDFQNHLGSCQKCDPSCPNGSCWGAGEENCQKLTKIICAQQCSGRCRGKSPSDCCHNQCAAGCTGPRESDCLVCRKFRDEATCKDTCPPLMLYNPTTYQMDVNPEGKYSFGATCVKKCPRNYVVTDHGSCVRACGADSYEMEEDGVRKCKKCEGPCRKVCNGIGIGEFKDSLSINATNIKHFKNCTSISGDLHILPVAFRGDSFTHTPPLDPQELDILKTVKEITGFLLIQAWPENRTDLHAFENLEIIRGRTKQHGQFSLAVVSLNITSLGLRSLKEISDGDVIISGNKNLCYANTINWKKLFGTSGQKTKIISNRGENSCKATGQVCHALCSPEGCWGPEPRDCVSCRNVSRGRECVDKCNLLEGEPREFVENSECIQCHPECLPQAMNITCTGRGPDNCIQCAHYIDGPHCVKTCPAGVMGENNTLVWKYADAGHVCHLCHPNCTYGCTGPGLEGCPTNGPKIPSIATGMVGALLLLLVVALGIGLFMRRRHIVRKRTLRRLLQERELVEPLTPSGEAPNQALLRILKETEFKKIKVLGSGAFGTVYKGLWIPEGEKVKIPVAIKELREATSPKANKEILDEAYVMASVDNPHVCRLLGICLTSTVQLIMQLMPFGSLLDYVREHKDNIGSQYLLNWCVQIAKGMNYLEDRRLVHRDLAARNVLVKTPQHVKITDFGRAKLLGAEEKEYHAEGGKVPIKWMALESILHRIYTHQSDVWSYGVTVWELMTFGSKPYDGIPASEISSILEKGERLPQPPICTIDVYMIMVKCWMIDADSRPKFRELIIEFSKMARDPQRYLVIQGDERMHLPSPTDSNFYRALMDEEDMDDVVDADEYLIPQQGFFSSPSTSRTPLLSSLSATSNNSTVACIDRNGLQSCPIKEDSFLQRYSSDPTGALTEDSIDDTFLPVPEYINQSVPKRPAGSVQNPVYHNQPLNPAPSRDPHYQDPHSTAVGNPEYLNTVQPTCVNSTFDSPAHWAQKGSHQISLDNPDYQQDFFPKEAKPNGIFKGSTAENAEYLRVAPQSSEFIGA
UniProt P00533, with tags, fused parts or gaps DEL746-750/C797S limits assumed: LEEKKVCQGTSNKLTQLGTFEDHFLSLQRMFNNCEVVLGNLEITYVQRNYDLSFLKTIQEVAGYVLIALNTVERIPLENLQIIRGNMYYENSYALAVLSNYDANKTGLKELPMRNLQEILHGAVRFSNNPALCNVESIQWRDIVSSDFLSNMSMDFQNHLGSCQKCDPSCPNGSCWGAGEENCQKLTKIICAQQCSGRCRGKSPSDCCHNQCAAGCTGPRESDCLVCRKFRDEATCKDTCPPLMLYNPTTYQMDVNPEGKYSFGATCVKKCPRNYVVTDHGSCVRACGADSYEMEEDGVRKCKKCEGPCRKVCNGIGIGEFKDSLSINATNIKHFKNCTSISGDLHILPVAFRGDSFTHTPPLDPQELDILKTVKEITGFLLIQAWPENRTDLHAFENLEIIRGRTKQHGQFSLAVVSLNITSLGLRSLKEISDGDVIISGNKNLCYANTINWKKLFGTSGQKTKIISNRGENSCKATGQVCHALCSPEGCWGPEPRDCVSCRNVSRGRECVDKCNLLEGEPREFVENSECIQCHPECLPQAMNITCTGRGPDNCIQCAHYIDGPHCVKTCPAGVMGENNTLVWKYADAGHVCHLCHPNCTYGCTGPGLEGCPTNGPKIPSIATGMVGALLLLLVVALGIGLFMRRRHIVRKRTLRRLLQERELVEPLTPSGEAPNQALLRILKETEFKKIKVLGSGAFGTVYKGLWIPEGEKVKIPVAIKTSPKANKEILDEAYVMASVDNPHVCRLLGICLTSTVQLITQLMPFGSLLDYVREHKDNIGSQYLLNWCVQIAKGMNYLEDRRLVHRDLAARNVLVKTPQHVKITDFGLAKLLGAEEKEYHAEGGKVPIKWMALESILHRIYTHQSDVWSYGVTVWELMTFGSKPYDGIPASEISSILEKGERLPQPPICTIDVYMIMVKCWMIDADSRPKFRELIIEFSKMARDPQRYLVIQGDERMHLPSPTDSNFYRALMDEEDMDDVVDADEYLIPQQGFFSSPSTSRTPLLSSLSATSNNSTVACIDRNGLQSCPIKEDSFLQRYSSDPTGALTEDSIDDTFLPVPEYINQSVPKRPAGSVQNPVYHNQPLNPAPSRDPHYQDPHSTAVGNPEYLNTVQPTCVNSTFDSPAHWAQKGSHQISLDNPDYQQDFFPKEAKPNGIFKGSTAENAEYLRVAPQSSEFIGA
UniProt P00533, with tags, fused parts or gaps DEL746-750/T790M/C797S limits assumed: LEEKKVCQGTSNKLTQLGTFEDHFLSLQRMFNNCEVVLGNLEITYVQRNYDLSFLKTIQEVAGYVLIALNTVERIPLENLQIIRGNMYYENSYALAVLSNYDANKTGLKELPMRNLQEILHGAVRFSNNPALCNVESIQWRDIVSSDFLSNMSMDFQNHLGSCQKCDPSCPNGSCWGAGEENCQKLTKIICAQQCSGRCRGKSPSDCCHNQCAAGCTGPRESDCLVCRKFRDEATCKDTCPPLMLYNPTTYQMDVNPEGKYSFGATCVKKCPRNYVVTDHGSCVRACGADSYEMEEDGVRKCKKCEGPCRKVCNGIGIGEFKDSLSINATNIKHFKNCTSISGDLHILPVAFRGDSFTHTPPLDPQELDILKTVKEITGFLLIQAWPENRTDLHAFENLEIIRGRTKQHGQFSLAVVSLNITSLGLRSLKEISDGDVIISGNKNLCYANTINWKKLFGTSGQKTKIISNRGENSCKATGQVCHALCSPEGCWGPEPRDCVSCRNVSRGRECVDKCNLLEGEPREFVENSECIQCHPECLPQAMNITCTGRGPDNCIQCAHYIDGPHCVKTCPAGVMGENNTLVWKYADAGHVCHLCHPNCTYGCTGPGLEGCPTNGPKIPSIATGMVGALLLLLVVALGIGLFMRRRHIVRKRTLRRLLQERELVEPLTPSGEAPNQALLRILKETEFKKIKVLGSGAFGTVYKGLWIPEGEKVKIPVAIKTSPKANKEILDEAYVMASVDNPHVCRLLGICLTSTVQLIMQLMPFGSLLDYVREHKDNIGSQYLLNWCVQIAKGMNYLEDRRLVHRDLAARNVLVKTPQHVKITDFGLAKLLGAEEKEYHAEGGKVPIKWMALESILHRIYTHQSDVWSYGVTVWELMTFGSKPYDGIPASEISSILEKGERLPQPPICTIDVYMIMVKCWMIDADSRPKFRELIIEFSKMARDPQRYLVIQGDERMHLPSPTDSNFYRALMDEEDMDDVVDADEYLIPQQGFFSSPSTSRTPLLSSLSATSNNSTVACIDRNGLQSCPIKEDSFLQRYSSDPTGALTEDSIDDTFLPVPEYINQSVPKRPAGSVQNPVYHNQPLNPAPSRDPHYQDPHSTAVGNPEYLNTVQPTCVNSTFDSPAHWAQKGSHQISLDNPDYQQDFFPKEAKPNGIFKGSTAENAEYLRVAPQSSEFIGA

EGFR LRCS (L858R/C797S) = EGFR LRCS (L858R/C797S) (Homo sapiens, UniProt P00533, C797S/L858R); assay: Biochemical EGFR kinase assay (Lance Ultra TR-FRET), double mutant L858R/C797S
Protocol: as §1, §2, §3

[1] = biological target: EGFR LRTMCS (L858R/T790M/C797S) (Homo sapiens, UniProt P00533, C797S/L858R/T790M); assay: Biochemical EGFR kinase assay (Lance Ultra TR-FRET), triple mutant L858R/T790M/C797S
Protocol: as §1, §2, §3

[2] = biological target: EGFR D19TMCS (del19/T790M/C797S) (Homo sapiens, UniProt P00533, C797S/DEL746-750/T790M); assay: Biochemical EGFR kinase assay (Lance Ultra TR-FRET), triple mutant del19/T790M/C797S
Protocol: as §1, §2, §3

EGFR D19CS (del19/C797S) = EGFR D19CS (del19/C797S) (Homo sapiens, UniProt P00533, C797S/DEL746-750); assay: Biochemical EGFR kinase assay (Lance Ultra TR-FRET), double mutant del19/C797S
Protocol: as §1, §2, §3

[3] = read-out: EGFR WT IC50, ATP 1 mM
[4] = read-out: EGFR LRCS IC50, ATP 1 mM
[5] = read-out: EGFR LRCS IC50, ATP Km
[6] = read-out: EGFR LRTMCS IC50, ATP 1 mM
[7] = read-out: EGFR LRTMCS IC50, ATP Km
[8] = read-out: EGFR D19TMCS IC50, ATP 1 mM
[9] = read-out: EGFR D19TMCS IC50, ATP Km
[10] = read-out: EGFR D19CS IC50, ATP 1 mM
[11] = read-out: EGFR D19CS IC50, ATP Km
[12] = read-out: IC50, EGFR WT, 1 mM, ATP 1 mM, EGFR wildtype
[13] = read-out: IC50, EGFR WT, Km, ATP at Km, EGFR wildtype
[14] = read-out: IC50, EGFR-LRCS, 1 mM, ATP 1 mM, EGFR L858R/C797S
[15] = read-out: IC50, EGFR-LRCS, Km, ATP at Km, EGFR L858R/C797S
[16] = read-out: IC50, EGFR LRTMCS, 1 mM, ATP 1 mM, EGFR L858R/T790M/C797S
[17] = read-out: IC50, EGFR LRTMCS, Km, ATP at Km, EGFR L858R/T790M/C797S
[18] = read-out: IC50, EGFR D19TMCS, Km, ATP at Km, EGFR del19/T790M/C797S
[19] = read-out: IC50, EGFR-D19CS, 1 mM, ATP 1 mM, EGFR del19/C797S
[20] = read-out: IC50, EGFR-D19CS, Km, ATP at Km, EGFR del19/C797S

IC50 (EGFR WT; [3]) [nM] | IC50 (EGFR WT; read-out: EGFR WT IC50, ATP Km) [nM] | IC50 (EGFR LRCS (L858R/C797S); [4]) [nM] | IC50 (EGFR LRCS (L858R/C797S); [5]) [nM] | IC50 [1, 6] [nM] | IC50 [1, 7] [nM] | IC50 [2, 8] [nM] | IC50 [2, 9] [nM] | IC50 (EGFR D19CS (del19/C797S); [10]) [nM] | IC50 (EGFR D19CS (del19/C797S); [11]) [nM] | IC50 (EGFR WT; [12]) [nM] | IC50 (EGFR WT; [13]) [nM] | IC50 (EGFR LRCS (L858R/C797S); [14]) [nM] | IC50 (EGFR LRCS (L858R/C797S); [15]) [nM] | IC50 [1, 16] [nM] | IC50 [1, 17] [nM] | IC50 [2, 18] [nM] | IC50 (EGFR D19CS (del19/C797S); [19]) [nM] | IC50 (EGFR D19CS (del19/C797S); [20]) [nM] | Compound
> 1000 | 100 to 1000 | > 1000 | 100 to 1000 | 10 to 100 | < 10 | 10 to 100 | 10 to 100 | 100 to 1000 | 10 to 100 | – | – | – | – | – | – | – | – | – | C[C@H]1CCNc2cc(ncc2-c2ccc(OC(F)F)cn2)Nc2ccnc(n2)-c2cnn(C)c2O1
> 1000 | 10 to 100 | 100 to 1000 | 10 to 100 | < 10 | < 10 | < 10 | < 10 | 10 to 100 | 10 to 100 | – | – | – | – | – | – | – | – | – | C[C@H]1CCOc2c(cnn2C)-c2nccc(n2)Nc2cc(c(-c3cnccn3)cn2)N1
> 1000 | 100 to 1000 | > 1000 | 100 to 1000 | 10 to 100 | < 10 | 10 to 100 | < 10 | > 1000 | > 1000 | – | – | – | – | – | – | – | – | – | Cn1ncc2c1OCCCNc1cc(ncc1-c1ccn(CC(F)(F)F)n1)Nc1ccnc-2n1
> 1000 | > 1000 | > 1000 | 100 to 1000 | < 10 | < 10 | < 10 | < 10 | > 1000 | 100 to 1000 | – | – | – | – | – | – | – | – | – | Cn1ncc2c1OCCCNc1cc(ncc1-c1ccn(C(F)F)n1)Nc1ccnc-2n1
> 1000 | 100 to 1000 | > 1000 | > 1000 | > 1000 | 10 to 100 | 100 to 1000 | 10 to 100 | > 1000 | > 1000 | – | – | – | – | – | – | – | – | – | C[C@@H]1CCOc2c(cnn2C)-c2nccc(n2)Nc2cc(c(-c3cc(C(F)(F)F)n(C)n3)cn2)N1

Continued, molecule first:

Compound | IC50 (EGFR WT; [3]) [nM] | IC50 (EGFR WT; read-out: EGFR WT IC50, ATP Km) [nM] | IC50 (EGFR LRCS (L858R/C797S); [4]) [nM] | IC50 (EGFR LRCS (L858R/C797S); [5]) [nM] | IC50 [1, 6] [nM] | IC50 [1, 7] [nM] | IC50 [2, 8] [nM] | IC50 [2, 9] [nM] | IC50 (EGFR D19CS (del19/C797S); [10]) [nM] | IC50 (EGFR D19CS (del19/C797S); [11]) [nM] | IC50 (EGFR WT; [12]) [nM] | IC50 (EGFR WT; [13]) [nM] | IC50 (EGFR LRCS (L858R/C797S); [14]) [nM] | IC50 (EGFR LRCS (L858R/C797S); [15]) [nM] | IC50 [1, 16] [nM] | IC50 [1, 17] [nM] | IC50 [2, 18] [nM] | IC50 (EGFR D19CS (del19/C797S); [19]) [nM] | IC50 (EGFR D19CS (del19/C797S); [20]) [nM]
Cc1nn(C)c2c1-c1nccc(n1)Nc1cc(c(-c3ncc(CN4CC(CC(C)(F)F)C4)cc3F)cn1)N[C@@H](C)CCO2 | > 1000 | 10 to 100 | 10 to 100 | < 10 | < 10 | < 10 | < 10 | < 10 | < 10 | < 10 | – | – | – | – | – | – | – | – | –
Cc1nn(C)c2c1-c1nccc(n1)Nc1cc(c(-c3ncc(CN4CC[C@H](O)C4)cc3F)cn1)N[C@@H](C)CCO2 | > 1000 | 10 to 100 | 10 to 100 | < 10 | < 10 | < 10 | < 10 | < 10 | 10 to 100 | < 10 | – | – | – | – | – | – | – | – | –
Cc1nn(C)c2c1-c1nccc(n1)Nc1cc(c(-c3cnc(C(C)(C)O)cn3)cn1)N[C@@H](C)CCO2 | – | – | – | – | – | – | – | – | – | – | > 1000 | < 10 | 10 to 100 | < 10 | < 10 | < 10 | < 10 | < 10 | < 10
Cc1nn(C)c2c1-c1nccc(n1)Nc1cc(c(-c3ncc(CN4C[C@H](CS(C)(=O)=O)[C@H]4C)cc3F)cn1)N[C@@H](C)CCO2 | – | – | – | – | – | – | – | – | – | – | > 1000 | 10 to 100 | 10 to 100 | < 10 | 10 to 100 | < 10 | < 10 | 10 to 100 | < 10
Cc1nn(C)c2c1-c1nccc(n1)Nc1cc(c(-c3ncc(CN4CC(C(C)(C)F)C4)cc3F)cn1)NCC[C@H](C)O2 | – | – | – | – | – | – | – | – | – | – | > 1000 | < 10 | < 10 | < 10 | < 10 | < 10 | < 10 | < 10 | < 10
Cc1nn(C)c2c1-c1nccc(n1)Nc1cc(c(-c3ccc(C(C)(O)C(F)(F)F)cn3)cn1)N[C@@H](C)CCO2 (some centres unmarked) | > 1000 | < 10 | 10 to 100 | < 10 | < 10 | < 10 | < 10 | < 10 | < 10 | < 10 | – | – | – | – | – | – | – | – | –

From US20260384450A1, “MACROCYCLIC AMINOPYRIDINE COMPOUNDS AS EGFR INHIBITORS” (published 2026)
